Experimental data as given in PubChem BioAssay AID1030 (National Center for Advancing Translational Sciences (NCATS), 2008).
Only a part is listed here, and it is no random draw. Records with an inconclusive call do not appear. Activity calls are given as the source filed them. The call rests on the fitted dose curve; in most records, active means well fitted inhibition curve with a large enough effect (not every such curve was filed as active); inconclusive means small, poorly fitted or top-dose-only effect, or another doubt; inactive means no such curve, though single readings can be large or run the other way.

Chains of the proteins cited; added tags and fusions are not shown. Lines headed by an entry give the natural chain unless they say otherwise; changes in a name come on top.
UniProt P00352: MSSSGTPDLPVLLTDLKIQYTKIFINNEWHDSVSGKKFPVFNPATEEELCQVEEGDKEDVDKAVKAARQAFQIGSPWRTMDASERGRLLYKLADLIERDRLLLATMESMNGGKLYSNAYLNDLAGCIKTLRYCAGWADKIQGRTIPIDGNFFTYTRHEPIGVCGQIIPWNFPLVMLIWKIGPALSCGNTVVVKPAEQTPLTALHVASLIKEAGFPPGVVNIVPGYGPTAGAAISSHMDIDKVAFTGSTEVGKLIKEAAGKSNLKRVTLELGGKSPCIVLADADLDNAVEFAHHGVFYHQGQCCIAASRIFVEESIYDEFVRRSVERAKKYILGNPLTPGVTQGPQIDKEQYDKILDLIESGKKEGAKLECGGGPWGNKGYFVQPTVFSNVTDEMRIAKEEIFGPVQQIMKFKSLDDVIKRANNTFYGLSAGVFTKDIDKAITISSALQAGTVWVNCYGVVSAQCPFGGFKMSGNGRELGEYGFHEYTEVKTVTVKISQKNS

target: Aldehyde dehydrogenase 1A1 (Homo sapiens) (UniProt P00352); experiment: qHTS Assay for Inhibitors of Aldehyde Dehydrogenase 1 (ALDH1A1); conditions: Purified ALDH1A1, NADH fluorescence, propionaldehyde substrate
Potency means the concentration at half of the fitted maximal effect.

Potency, active:
CC[n+]1c(/C=C/N(C)c2ccccc2)oc2ccccc21 31.6 µM
Cn1c2c(c(=O)n(C)c1=O)[C@@]1(C(=O)Nc3ccccc31)C(C#N)=C(N)O2 14.1 µM
CC(C)(C)C(=O)CSc1nc2c(c(-c3cccs3)c1C#N)CCC2 20 µM
